We go through one compound from patent US20110159111A1, “PHARMACEUTICAL COMBINATIONS” (priority 2006, published 2011).

Sequences of proteins named here, by UniProt entry; tags and fusion partners are left off. Residues count along the entry.
UniProt P35968, 20-1356: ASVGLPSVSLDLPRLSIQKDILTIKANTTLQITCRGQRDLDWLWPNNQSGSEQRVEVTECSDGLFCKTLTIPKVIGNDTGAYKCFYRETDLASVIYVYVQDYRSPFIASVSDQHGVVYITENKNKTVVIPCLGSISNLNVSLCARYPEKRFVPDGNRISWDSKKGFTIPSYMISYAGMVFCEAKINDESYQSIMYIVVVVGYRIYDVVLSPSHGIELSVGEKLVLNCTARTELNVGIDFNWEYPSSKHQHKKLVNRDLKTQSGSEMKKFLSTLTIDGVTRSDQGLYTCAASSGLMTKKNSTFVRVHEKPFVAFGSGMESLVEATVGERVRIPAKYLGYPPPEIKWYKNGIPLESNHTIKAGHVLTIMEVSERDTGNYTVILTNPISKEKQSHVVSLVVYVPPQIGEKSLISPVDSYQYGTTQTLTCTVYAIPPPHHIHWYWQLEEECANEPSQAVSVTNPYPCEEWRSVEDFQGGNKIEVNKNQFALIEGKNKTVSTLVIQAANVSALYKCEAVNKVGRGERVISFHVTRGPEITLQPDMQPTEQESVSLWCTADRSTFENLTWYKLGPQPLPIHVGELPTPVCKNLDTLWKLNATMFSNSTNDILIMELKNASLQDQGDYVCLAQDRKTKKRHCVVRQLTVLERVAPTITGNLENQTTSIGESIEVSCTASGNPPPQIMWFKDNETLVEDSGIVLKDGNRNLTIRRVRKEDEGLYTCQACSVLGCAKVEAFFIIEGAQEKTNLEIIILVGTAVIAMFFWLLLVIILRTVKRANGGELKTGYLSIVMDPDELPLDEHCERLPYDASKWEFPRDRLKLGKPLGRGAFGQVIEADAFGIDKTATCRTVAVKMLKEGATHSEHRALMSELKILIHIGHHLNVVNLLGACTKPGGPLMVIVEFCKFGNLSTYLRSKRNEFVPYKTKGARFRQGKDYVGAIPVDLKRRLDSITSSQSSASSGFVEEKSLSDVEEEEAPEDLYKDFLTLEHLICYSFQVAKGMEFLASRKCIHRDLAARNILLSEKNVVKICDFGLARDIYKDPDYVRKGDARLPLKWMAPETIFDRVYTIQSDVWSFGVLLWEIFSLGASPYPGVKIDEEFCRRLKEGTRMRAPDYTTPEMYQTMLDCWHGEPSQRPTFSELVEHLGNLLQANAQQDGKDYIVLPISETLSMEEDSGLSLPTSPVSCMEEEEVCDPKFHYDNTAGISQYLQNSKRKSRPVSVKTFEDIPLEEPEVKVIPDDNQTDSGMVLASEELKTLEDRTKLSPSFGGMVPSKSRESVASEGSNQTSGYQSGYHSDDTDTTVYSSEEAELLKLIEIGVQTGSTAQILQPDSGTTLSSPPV
UniProt P12931, whole entry: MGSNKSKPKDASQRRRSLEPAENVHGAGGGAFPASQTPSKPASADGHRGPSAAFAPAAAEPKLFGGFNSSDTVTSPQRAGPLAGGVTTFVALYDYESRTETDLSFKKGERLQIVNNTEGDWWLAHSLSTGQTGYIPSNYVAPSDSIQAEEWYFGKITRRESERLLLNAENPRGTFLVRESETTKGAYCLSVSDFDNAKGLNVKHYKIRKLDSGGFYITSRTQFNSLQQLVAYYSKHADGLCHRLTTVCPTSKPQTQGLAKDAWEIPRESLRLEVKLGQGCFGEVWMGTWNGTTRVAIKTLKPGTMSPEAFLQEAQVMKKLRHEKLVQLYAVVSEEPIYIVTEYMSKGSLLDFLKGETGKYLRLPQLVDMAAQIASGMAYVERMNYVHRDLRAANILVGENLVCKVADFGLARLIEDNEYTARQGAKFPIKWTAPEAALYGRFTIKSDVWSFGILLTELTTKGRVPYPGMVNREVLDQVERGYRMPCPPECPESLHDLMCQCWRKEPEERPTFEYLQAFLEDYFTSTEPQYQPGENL

One experiment concerns the target VEGFR2 (KDR) (Homo sapiens, UniProt P35968). As to the kind of experiment: biochemical.
The target of the next experiment is cSrc (Homo sapiens, UniProt P12931). As to the kind of experiment: biochemical.

SMILES strings stand for the structures.

For `O=C(Nc1c[nH]nc1-c1nc2cc(CN3CCOCC3)ccc2[nH]1)NC1CC1` [compound of formula (I), 1-cyclopropyl-3-[3-(5-morpholin-4-ylmethyl-1H-benzoimidazol-2-yl)-1H-pyrazol-4-yl]-urea], the IC50 on VEGFR2 (KDR) and at cSrc was under 100 nM in each case.
